Experimental data as given in article PMC12628701, “Paroxysmal Nocturnal Hemoglobinuria in Pregnancy Treated With Pegcetacoplan: Case Report and Pharmacokinetic Analysis” (EJHaem, 2025).

What was measured:
[1] = system: patient with hemolytic PNH; experiment: Hematological response (hemoglobin, hemolytic markers, transfusion requirements) in pregnant patient with PNH; assay type: in vivo, human; conditions: for Hapto: normal 0.3–2.0; for ARC: normal 10–100; for Hb: normal 115–160; for Bili: normal ≤ 21; for LDH: normal ≤ 214
Procedure: The patient was a person diagnosed with hemolytic PNH 5 years before their first pregnancy, with a 95% PNH neutrophil clone by flow cytometry. Upon diagnosis, they were initiated and maintained on eculizumab but remained transfusion‐dependent (∼1 unit RBC/month) despite dose escalation to 1200 mg intravenous every 11 days.
An unplanned pregnancy was identified during treatment with pegcetacoplan. Given the lack of safety data, they were reloaded with eculizumab at 4 weeks’ gestation, with pegcetacoplan discontinued at the time of the first eculizumab infusion. Prophylactic‐dose dalteparin was prescribed. Despite increased eculizumab dosing (1200 mg every 11 days), they redeveloped transfusion‐dependent anemia with signs of extravascular hemolysis, requiring 2–3 units RBC/month. Due to increasing transfusion requirements throughout the second trimester, following multidisciplinary consultation and shared decision‐making, twice‐weekly pegcetacoplan was reinitiated at 28 weeks’ gestation with a 4‐week overlap with eculizumab as per standard protocol. Informed consent was obtained for off‐label use in pregnancy, pharmacokinetic sampling, and case reporting. Institutional ethics board review exemption was granted for this single‐patient case report.
(§1) Maternal and fetal outcomes were assessed throughout the third trimester and postpartum. Hematological response was evaluated using serial measurements of hemoglobin, hemolytic markers, and transfusion requirements. Complement levels/activity were measured using immunoturbidimetric assays for C3/C4 (Roche Diagnostics, Germany), and 50% hemolytic complement (CH50) by turbidimetric assay (Optilite, Binding Site, UK). Maternal clinical monitoring included evaluation for breakthrough hemolysis, thrombotic events, and other adverse events. Neonatal outcomes included gestational age at delivery, mode of delivery, birth weight, Apgar scores, and any complications identified during birth, hospitalization, or early follow‐up.

complement C3, C4, CH50 = experiment: Complement levels/activity (C3/C4 immunoturbidimetric, CH50 turbidimetric) in patient; assay type: in vivo, human; conditions: normal 42–95
Procedure: as §1

[2] = 4 + 2 w, date of eculizumab initiation

B1: eculizumab (antibody, chains of the INN, looked up)
heavy: QVQLVQSGAEVKKPGASVKVSCKASGYIFSNYWIQWVRQAPGQGLEWMGEILPGSGSTEYTENFKDRVTMTRDTSTSTVYMELSSLRSEDTAVYYCARYFFGSSPNWYFDVWGQGTLVTVSSASTKGPSVFPLAPCSRSTSESTAALGCLVKDYFPEPVTVSWNSGALTSGVHTFPAVLQSSGLYSLSSVVTVPSSNFGTQTYTCNVDHKPSNTKVDKTVERKCCVECPPCPAPPVAGPSVFLFPPKPKDTLMISRTPEVTCVVVDVSQEDPEVQFNWYVDGVEVHNAKTKPREEQFNSTYRVVSVLTVLHQDWLNGKEYKCKVSNKGLPSSIEKTISKAKGQPREPQVYTLPPSQEEMTKNQVSLTCLVKGFYPSDIAVEWESNGQPENNYKTTPPVLDSDGSFFLYSRLTVDKSRWQEGNVFSCSVMHEALHNHYTQKSLSLSLG
light: DIQMTQSPSSLSASVGDRVTITCGASENIYGALNWYQQKPGKAPKLLIYGATNLADGVPSRFSGSGSGTDFTLTISSLQPEDFATYYCQNVLNTPLTFGQGTKVEIKRTVAAPSVFIFPPSDEQLKSGTASVVCLLNNFYPREAKVQWKVDNALQSGNSQESVTEQDSKDSTYSLSSTLTLSKADYEKHKVYACEVTHQGLSSPVTKSFNRGEC
- Hapto [1, 2]: 1.2 g/L
- ARC [1, 2]: 9.6e+10 L⁻¹
- Hb [1, 2]: 107 g/L
- Bili [1, 2]: 11 µmol/L
- LDH [1, 2]: 217 U/L
- Hapto ([1]; 7 + 3 w, on eculizumab): 0.74 g/L
- ARC ([1]; 7 + 3 w, on eculizumab): 2.15e+11 L⁻¹
- Hb ([1]; 7 + 3 w, on eculizumab): 102 g/L
- Bili ([1]; 7 + 3 w, on eculizumab): 13 µmol/L
- LDH ([1]; 7 + 3 w, on eculizumab): 220 U/L
- Hapto ([1]; 10 + 5 w, on eculizumab): 0.1 g/L
- ARC ([1]; 10 + 5 w, on eculizumab): 1.26e+11 L⁻¹
- Hb ([1]; 10 + 5 w, on eculizumab): 99 g/L
- Bili ([1]; 10 + 5 w, on eculizumab): 11 µmol/L
- LDH ([1]; 10 + 5 w, on eculizumab): 256 U/L
- Hapto ([1]; 14 + 5w, on eculizumab): 0.1 g/L
- ARC ([1]; 14 + 5w, on eculizumab): 1.72e+11 L⁻¹
- Hb ([1]; 14 + 5w, on eculizumab): 93 g/L
- Bili ([1]; 14 + 5w, on eculizumab): 6 µmol/L
- LDH ([1]; 14 + 5w, on eculizumab): 213 U/L
- Hapto ([1]; 21 + 2 w, on eculizumab): 0.1 g/L
- ARC ([1]; 21 + 2 w, on eculizumab): 1.97e+11 L⁻¹
- Hb ([1]; 21 + 2 w, on eculizumab): 85 g/L
- Bili ([1]; 21 + 2 w, on eculizumab): 8 µmol/L
- LDH ([1]; 21 + 2 w, on eculizumab): 246 U/L
- ARC ([1]; 26 + 2 w, on eculizumab): 1.72e+11 L⁻¹
- Hb ([1]; 26 + 2 w, on eculizumab): 82 g/L
- Bili ([1]; 26 + 2 w, on eculizumab): 10 µmol/L
- LDH ([1]; 26 + 2 w, on eculizumab): 243 U/L
- Transfusion requirement ([1]; before pregnancy, eculizumab escalated to 1200 mg intravenous every 11 days): ~1 unit RBC/month
- Transfusion requirement ([1]; during pregnancy, eculizumab 1200 mg every 11 days): 2–3 units RBC/month
- CH50 (complement C3, C4, CH50; [2]): 18 U/mL
- CH50 (complement C3, C4, CH50; 7 + 3 w, on eculizumab): 23 U/mL
- CH50 (complement C3, C4, CH50; 10 + 5 w, on eculizumab): 19 U/mL
- CH50 (complement C3, C4, CH50; 14 + 5w, on eculizumab): 15 U/mL
- CH50 (complement C3, C4, CH50; 21 + 2 w, on eculizumab): 15 U/mL
